Test results taken from patent US12616672B2, “Methods for assessing risk of cardiovascular disease and methods and compounds for use in treating or preventing cardiovascular disease” (Queen Mary University of London, priority 2017, dated 2026).

Test system: healthy volunteer peripheral blood neutrophils, monocytes and platelets
Experiment: Healthy volunteer whole blood incubated with RvDn-3 DPA then PAF, flow cytometry of activation markers
Assay type: cell-based, human
Details: n=5 donors
Description: Blood was collected from healthy volunteers and incubated with RvD2n-3 DPA, RvD5n-3 DPA (0.1 nM, 1 nM or 10 nM) or vehicle (PBS) for 15 min (37° C.) then with PAF (100 ng/ml; 30 min; 37° C.). Cell activation and leukocyte-platelet aggregates were assessed using flow cytometry. (A,B) Representative histograms depicting neutrophil (A) CD11b and (B) CD62P expression. (C,D) Cumulative neutrophil ([…]) CD11b and (D) CD62P expression. (E,F) Monocyte (E) CD11b and (F) CD62P expression. Results are mean of n=5 per time point and expressed as percentage change from PAF incubated cells. *p<0.05 compared to PAF using one-sample t test, followed by Sidak correction of p values.
Blood was collected from healthy volunteers and incubated with RvD2n-3 DPA, RvD5n-3 DPA (0.1 nM, 1 nM or 10 nM) or vehicle (PBS) for 15 min (37° C.) then with PAF (100 ng/ml; 30 min; 37° C.). Cell activation and leukocyte-platelet aggregates were assessed using flow cytometry. (A,B) Images depicting platelet monocyte (A) and (B) platelet-neutrophil aggregates. Results are representative of n=3 distinct experiments. (C,D) Cumulative neutrophil (C) CD11b and (D) CD62P expression. […] Results are mean of n=5 per condition and expressed as percentage change from PAF incubated cells. *p<0.05 compared to PAF using Wilcoxon Signed Rank Test. […] Adhesion molecule expression evaluated using flow cytometry. […]

CC/C=C\CC(O)/C=C/C=C\CC/C=C/C(O)C(O)CCCCCC(=O)O (stereo not shown) [RvD1n-3 DPA, 7,8,17-trihydroxy-9,11,13,15E,19Z-docosapentaenoic acid]
regulation of neutrophil, monocyte and platelet responses: only partially regulate
